Test system: bacterial contaminants isolated from a contaminated Saccharomyces pilot fermentation
Details: YEP-glucose media, 30° C., OD at 660 nm over several hours

SMILES	dosage that suppresses bacterial growth (reduced rate of increase in OD660 vs the 0 ppm controls)
OO [hydrogen peroxide]	≥ 50 ppm
[O][Cl+][O-] [chlorine dioxide]	≥ 100 ppm

Reference: patent US8426175B2, “Method for the production of a fermentation product from a pretreated lignocellulosic feedstock” (Iogen Energy Corporation, priority 2007, dated 2013)
